Usually IC50 stands for the midpoint of a concentration-inhibition curve. Low values mean greater potency in that assay, high ones weaker potency in that assay.

By UniProt entry, the sequences of proteins in these tests, tags left out. Where a name states a change or a piece, a line headed by the entry shows the natural chain unless it says otherwise.
UniProt Q9UM73: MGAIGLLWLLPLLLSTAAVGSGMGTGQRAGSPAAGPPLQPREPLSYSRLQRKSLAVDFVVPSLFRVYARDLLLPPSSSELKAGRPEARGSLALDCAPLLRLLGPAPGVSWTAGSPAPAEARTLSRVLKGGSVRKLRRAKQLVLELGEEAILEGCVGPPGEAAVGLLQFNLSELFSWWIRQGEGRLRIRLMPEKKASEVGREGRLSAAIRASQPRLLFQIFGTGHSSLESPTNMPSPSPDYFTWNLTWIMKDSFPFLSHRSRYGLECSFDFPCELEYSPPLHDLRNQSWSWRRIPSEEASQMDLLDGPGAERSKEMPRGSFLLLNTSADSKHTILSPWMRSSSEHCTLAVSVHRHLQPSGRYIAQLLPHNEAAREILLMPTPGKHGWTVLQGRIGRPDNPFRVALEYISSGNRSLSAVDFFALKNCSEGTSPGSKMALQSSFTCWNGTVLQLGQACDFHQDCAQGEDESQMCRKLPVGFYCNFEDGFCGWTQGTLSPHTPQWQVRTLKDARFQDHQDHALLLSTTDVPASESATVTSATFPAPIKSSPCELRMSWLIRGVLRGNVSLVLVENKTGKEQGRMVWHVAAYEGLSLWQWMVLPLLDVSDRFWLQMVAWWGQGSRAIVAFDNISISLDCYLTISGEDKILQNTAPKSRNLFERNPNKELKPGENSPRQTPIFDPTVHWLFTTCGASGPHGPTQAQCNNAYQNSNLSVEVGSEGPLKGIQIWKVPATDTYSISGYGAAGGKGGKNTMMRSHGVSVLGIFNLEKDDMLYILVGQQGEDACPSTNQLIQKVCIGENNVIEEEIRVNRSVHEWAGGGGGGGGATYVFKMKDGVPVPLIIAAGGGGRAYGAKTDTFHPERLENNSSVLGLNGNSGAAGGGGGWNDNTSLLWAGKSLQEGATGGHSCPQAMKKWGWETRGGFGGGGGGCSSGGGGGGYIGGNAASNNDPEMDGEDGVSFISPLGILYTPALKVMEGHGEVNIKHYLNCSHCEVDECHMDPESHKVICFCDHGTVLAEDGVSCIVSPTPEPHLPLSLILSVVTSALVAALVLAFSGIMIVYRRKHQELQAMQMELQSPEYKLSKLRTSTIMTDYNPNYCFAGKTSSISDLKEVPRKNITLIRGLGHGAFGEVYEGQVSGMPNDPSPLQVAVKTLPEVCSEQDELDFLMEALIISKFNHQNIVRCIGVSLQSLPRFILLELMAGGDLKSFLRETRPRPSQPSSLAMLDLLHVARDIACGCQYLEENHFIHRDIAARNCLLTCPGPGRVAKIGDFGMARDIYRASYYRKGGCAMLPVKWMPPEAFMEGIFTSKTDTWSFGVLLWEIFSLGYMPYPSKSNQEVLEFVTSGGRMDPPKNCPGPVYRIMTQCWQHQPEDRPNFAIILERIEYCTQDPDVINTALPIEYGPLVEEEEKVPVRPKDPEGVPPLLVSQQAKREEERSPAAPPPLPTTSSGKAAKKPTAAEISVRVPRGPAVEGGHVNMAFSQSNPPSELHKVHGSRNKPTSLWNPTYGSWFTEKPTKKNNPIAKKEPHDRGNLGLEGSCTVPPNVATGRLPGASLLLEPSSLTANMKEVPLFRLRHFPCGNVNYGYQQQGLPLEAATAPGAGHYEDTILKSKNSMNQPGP

We go through seven molecules from BindingDB's records for patent US10053458 (Korea Research Institute of Chemical Technology, 2018).

A value given as a limit tells only on which side of the number the result lay.

This assay deals with ALK tyrosine kinase receptor (Homo sapiens, UniProt Q9UM73).
Regarding `COc1cc2c(cc1Nc1ncc(Cl)c(Nc3ccccc3S(=O)(=O)C(C)C)n1)C1(CCCC1)CN(C(=O)C(F)(F)F)C2` [US10053458, 13], the IC50 was less than 10 nM.
The molecule `CCOc1cc2c(cc1Nc1ncc(Cl)c(Nc3ccccc3S(=O)(=O)C(C)C)n1)CN(CCO)CC2(C)C` [US10053458, 93] came in with an IC50 of less than 10 nM.
In the case of `COc1cc2c(cc1Nc1ncc(Cl)c(Nc3ccccc3S(=O)(=O)C(C)C)n1)C(C)NCC2` (configuration not stated) [US10053458, 46] it was less than 10 nM.
For `COc1cc2c(cc1Nc1ncc(Cl)c(Nc3ccccc3S(=O)(=O)C(C)C)n1)CCNC2C(C)C` (configuration not stated) [US10053458, 28], the IC50 is less than 10 nM.
The result for `CC(C)S(=O)(=O)c1ccccc1Nc1nc(Nc2cc3c(cc2OC(F)F)C(C)(C)NCC3)ncc1Cl` [US10053458, 100] reads less than 10 nM; that for `COc1cc2c(cc1Nc1ncc(Cl)c(Nc3ccccc3S(=O)(=O)C(C)C)n1)C(=O)NCC2` [US10053458, 44], less than 10 nM; that for `CCOc1cc2c(cc1Nc1ncc(Cl)c(Nc3ccccc3S(=O)(=O)C(C)C)n1)CCNC2(C)C` [US10053458, 99], less than 10 nM.
